In ChEMBL document CHEMBL3769379, “SAR Studies of 5-Aminopyrazole-4-carboxamide Analogues as Potent and Selective Inhibitors of Toxoplasma gondii CDPK1” (ACS Med Chem Lett, 2015) one finds IC50 data, which are given here for one compound.

For the experiment, the target named is T1, Calmodulin-domain protein kinase 1 (Toxoplasma gondii, UniProt Q9BJF5).
T1 sequence (Q9BJF5 whole entry): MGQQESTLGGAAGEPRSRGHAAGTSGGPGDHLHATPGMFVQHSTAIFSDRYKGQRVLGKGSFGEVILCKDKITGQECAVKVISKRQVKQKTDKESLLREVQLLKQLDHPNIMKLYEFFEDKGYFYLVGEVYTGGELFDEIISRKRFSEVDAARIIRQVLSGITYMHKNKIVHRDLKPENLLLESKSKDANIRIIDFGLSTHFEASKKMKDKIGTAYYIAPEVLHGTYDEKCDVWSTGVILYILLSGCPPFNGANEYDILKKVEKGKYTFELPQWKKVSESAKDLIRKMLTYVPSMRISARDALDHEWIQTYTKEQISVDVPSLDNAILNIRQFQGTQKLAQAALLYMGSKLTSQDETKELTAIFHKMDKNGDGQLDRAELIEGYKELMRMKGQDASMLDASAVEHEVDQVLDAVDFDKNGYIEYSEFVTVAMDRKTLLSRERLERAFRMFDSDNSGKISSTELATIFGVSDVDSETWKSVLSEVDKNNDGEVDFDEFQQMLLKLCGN

SMILES strings stand for the structures.

`CCOc1ccc2cc(-c3nn(C(C)CCO)c(N)c3C(N)=O)cnc2c1` (stereo unspecified) had a 50% inhibitory concentration (IC50) of 0.02 µM.

For orientation: IC50 means the concentration at which inhibition is half-maximal. Low readings indicate inhibition by little substance, high ones a need for much substance.
